For three molecules, activity change, negative = inhibition results are on record in PubChem BioAssay AID504810 (National Center for Advancing Translational Sciences (NCATS), 2011).

Protein sequences, listed by entry. Tags and fused reporters are not part of them.
UniProt P16473, whole entry: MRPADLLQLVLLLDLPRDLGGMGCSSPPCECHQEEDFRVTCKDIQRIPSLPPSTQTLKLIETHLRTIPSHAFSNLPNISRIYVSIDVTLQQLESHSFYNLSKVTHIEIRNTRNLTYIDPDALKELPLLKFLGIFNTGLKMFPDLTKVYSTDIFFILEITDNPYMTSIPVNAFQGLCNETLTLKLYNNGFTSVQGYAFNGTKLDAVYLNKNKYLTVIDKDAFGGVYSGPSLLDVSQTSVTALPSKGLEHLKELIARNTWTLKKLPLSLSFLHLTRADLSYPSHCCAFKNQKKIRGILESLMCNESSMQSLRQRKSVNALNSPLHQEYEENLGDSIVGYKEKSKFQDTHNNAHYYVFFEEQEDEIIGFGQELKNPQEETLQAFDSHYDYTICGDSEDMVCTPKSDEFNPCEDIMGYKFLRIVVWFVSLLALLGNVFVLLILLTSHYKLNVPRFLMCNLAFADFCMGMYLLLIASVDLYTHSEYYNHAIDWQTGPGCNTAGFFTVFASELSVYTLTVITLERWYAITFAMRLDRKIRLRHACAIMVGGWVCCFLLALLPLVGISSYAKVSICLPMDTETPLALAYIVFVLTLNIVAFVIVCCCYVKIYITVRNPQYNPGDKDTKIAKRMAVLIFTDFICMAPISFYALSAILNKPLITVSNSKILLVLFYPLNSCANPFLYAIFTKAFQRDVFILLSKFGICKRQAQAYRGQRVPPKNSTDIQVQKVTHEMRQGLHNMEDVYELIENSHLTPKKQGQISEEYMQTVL

SMILES strings stand for the structures. The entries are a selection whose mix differs from that of the whole data set. Calls of active or inactive are those of the source.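 How the source made its calls: active means activity change below a set negative limit, meaning inhibition stronger than a set level (cut at about -70% in these data); inconclusive means activity change between two set negative limits; inactive means the rest.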
On the % scale 0 is the no-effect control and ±100 the full control effect.

For the experiment, the target named is Thyrotropin receptor (Homo sapiens) (UniProt P16473). The experiment in a line: Antagonists of the Thyroid Stimulating Hormone Receptor: HTS campaign. The note with it: TSHR-expressing cells, TSH-stimulated cAMP HTRF, 2 h; at 11.5 µM; hits give low values. From the text:
The thyroid-stimulating hormone receptor (TSHR) is a member of the 7 trans-membrane-spanning receptor (7TMR) family of cell surface receptors. TSHR-mediated hyperthyroidism is important in thyroid pathology. The development of small molecule antagonists of TSHR may lead to therapeutic approaches for TSHR-mediated hyperthyroidism caused by constitutively activating mutations or stimulating auto-antibodies associated with Graves' disease. Graves' disease is the leading cause of hyperthyroidism and is caused by autoantibodies that stimulate TSHR (TsAbs) causing thyroid growth and unregulated overproduction of thyroid hormones and existing treatments have liabilities (agranulocytosis). In addition, TSHRs are known to be expressed in multiple extrathyroidal tissues including bone, brain, kidney, testis, fat and cells of the immune system but the role of the TSHR in these tissues is not clear. Therefore, TSHR antagonists/inverse agonists could be used as probes of extrathyroidal TSHR function. Finally, TSHR inverse agonists, which are a subclass of antagonists that inhibit agonist-independent (or basal or constitutive) TSHR signaling, could be used to inhibit TSH-independent signaling in patients with recurrent or metastatic thyroid cancer who are receiving thyroid hormone to suppress TSH. In collaboration between scientist from the NCGC and the NIDDK, a miniaturized HTRF high-throughput screen was developed. It's a cell based assay, where an anti cAMP antibody contains a fluorescent cryptate tag (excitation 337 nm; emission 620 nm) and the acceptor is cAMP-d2 (excitation 620 nm; emission 665 nm). When antibody and cAMP-d2 interact and are excited by a 337 nm light, a FRET occurs resulting in emission at 665 nm. The assay is competition between cAMP-d2 and cAMP (from the cell lysate). The homogeneous protocol allows for one step dispense after stimulation that is automation friendly. NIH Chemical Genomics Center [NCGC] NIH Molecular Libraries Probe Centers Network [MLPCN] […]
1. […] The result is obtained by using a ViewLux read-out with HTRF settings.
For orientation: In TR-FRET formats the signal depends on donor and acceptor labels being close together.
In the case of `CCC(=O)N(c1ccccc1)C1CCN(CCc2ccccc2)CC1`, the activity change, negative = inhibition was inactive: -6.67%.

For the molecule `CCC(=O)N(c1ccccc1)C1(COC)CCN(CCc2cccs2)CC1`, the activity change, negative = inhibition is inactive: 24%.

Regarding `CCC(=O)N(c1ccccc1)C1(COC)CCN(CCn2nnn(CC)c2=O)CC1`, the activity change, negative = inhibition is inactive: 1.44%.
